## OPERA 2.9 data: properties

Source: data files of OPERA 2.9 (Mansouri et al.), github.com/kmansouri/OPERA.

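These are experimental values that the OPERA curators gathered from public databases to train and test their QSAR models. One number stands for a compound and property, with no spread given. Method, purity and exact conditions of the single measurements are not given. The measured form (salt, isomer or mixture) is not always the one drawn. Unmarked limits or estimates from the upstream databases cannot be ruled out.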

Melting points are in °C.
The boiling point refers to atmospheric pressure (760 mmHg), by the definition of the set.
The octanol-water partition coefficient is given as log10; larger values mean a more lipophilic compound.
Water solubility is log10 of mol/L, nominally at 25 °C; higher is more soluble.
Vapor pressure is log10 of mmHg; the set covers 15 to 30 °C, mostly 20 to 25 °C.
Clint is human hepatic intrinsic clearance in µL/min per million cells; 0 means that no clearance was seen.

- CCOC=C(C(=O)OCC)C(=O)OCC [Diethyl ethoxymethylenemalonate]: log Kow 1.8; vapor pressure -3.367 (log10 mmHg)
- COc1ccc(C(Cl)=C(c2ccc(OC)cc2)c2ccc(OC)cc2)cc1 [Chlorotrianisene]: log Kow 6.4; log S -6.282 (log10 mol/L); intrinsic clearance 0 µL/min/10^6 cells
- CCC(=O)OCC(C)(C)OC(C)C1CCCC(C)(C)C1 (configuration not stated): melting point -22.15 °C; bp 286 °C; log Kow 4.68; log S -4.787 (log10 mol/L); vapor pressure -0.823 (log10 mmHg)
- C[C@@H]1C[C@H]2C3C[C@H](F)C4=CC(=O)C=CC4(C)[C@@]3(F)[C@@H](O)CC2(C)[C@@]1(O)C(=O)COC(=O)C(C)(C)C (some centres not stated) [Flumethasone pivalate]: melting point 219 °C; log S -4.665 (log10 mol/L)
- FC(F)(F)C(F)(F)C(F)(F)C(F)(C(F)(F)F)C(F)(F)F [Perfluoroisohexane]: log Kow 3.74; vapor pressure 2.337 (log10 mmHg)
- O=C(c1ccccc1)C1(O)CCCCC1 [(1-Hydroxycyclohexyl)(phenyl)methanone]: log Kow 2.81; log S -2.665 (log10 mol/L); vapor pressure -3.824 (log10 mmHg)
- CCCCOCC(C)OC(=O)COc1nc(F)c(Cl)c(N)c1Cl (configuration not stated): log S -4.467 (log10 mol/L); vapor pressure -7.347 (log10 mmHg)
- CC(=O)[O-].COc1ccc(N(C)/N=C/C2=[N+](C)c3ccccc3C2(C)C)cc1: melting point -12.2 °C; log S -2.988 (log10 mol/L)
- COC(=O)CC(C)(C)C(Cl)CC(Cl)(Cl)C(F)(F)F (configuration not stated): melting point -63.08 °C; bp 257.4 °C
- O=C1CCC([C@H]2CC[C@H](c3ccc(F)c(F)c3)CC2)CC1: melting point 77.3 °C; log Kow 5; log S -5.864 (log10 mol/L); vapor pressure -6.25 (log10 mmHg)
- N#CCCN(CCC#N)c1ccc(N=Nc2c(Br)cc([N+](=O)[O-])cc2C(F)(F)F)cc1: melting point 186.3 °C; log Kow 3.6; log S -7.85 (log10 mol/L)
- COC(=O)[C@]1(NC(=O)Cc2cc(C)ccc2C)CC[C@@H](OC)CC1: melting point 99.8 °C; log S -3.123 (log10 mol/L)
- COC(C)(C)CCO [3-Methoxy-3-methylbutan-1-ol]: log Kow 0.18; vapor pressure -0.222 (log10 mmHg)
- CC1=CC(C)(C)CC(=O)C1 [beta-Isophorone]: melting point -40.7 °C; vapor pressure -0.14 (log10 mmHg)
- FC(F)(F)c1cccc(C(c2ccccc2)(c2ccccc2)n2ccnn2)c1: melting point 132 °C; log S -8.383 (log10 mol/L)
- CN(C)CCN(C)CCN(C)C [1,1,4,7,7-Pentamethyldiethylenetriamine]: log Kow 0.005; vapor pressure -0.694 (log10 mmHg)
- C[C@H](CCCNCC(=O)O)[C@H]1CC[C@H]2[C@@H]3CC[C@@H]4C[C@H](O)CC[C@]4(C)[C@H]3C[C@H](O)[C@]12C [Glycodeoxycholic acid]: log Kow 2.25; log S -5.208 (log10 mol/L)
- O=C1CCCCCCCCCCC(=O)OCCO1 [1,4-Dioxacyclohexadecane-5,16-dione]: log Kow 3.65; log S -3.534 (log10 mol/L); vapor pressure -3.678 (log10 mmHg)
- CCOC(=O)ON=C(C)C(=O)c1ccccc1 [1,2-Propanedione, 1-phenyl-, 2-[O-(ethoxycarbonyl)oxime]]: melting point 59.3 °C; log Kow 2.84; log S -3.264 (log10 mol/L); vapor pressure -4.426 (log10 mmHg)
- CC(N)c1ccccc1 (configuration not stated) [(1-Aminoethyl)benzene]: log Kow 0.225; vapor pressure -0.45 (log10 mmHg)
- COc1cc(Cl)c(OC)cc1N [2,5-Dimethoxy-4-chloroaniline]: log Kow 1.93; log S -3.006 (log10 mol/L); vapor pressure -4.563 (log10 mmHg)
- C=CCc1ccc(OC(C)=O)c(OC)c1 [(2-Methoxy-4-prop-2-enylphenyl) acetate]: log Kow 2.8; log S -2.703 (log10 mol/L)
- CC(O)COC(C)(C)C (configuration not stated) [1-tert-Butoxy-2-propanol]: log S 0.498 (log10 mol/L); vapor pressure 0.681 (log10 mmHg)
- CC(=O)OC1CCC2C3CCc4cc(O)ccc4C3CCC12C (configuration not stated) [3-Hydroxyestra-1(10),2,4-trien-17-yl acetate]: melting point 218 °C; log Kow 4; log S -6.321 (log10 mol/L)
- O=S1(=O)CS(=O)(=O)OCO1 [1,5,2,4-dioxadithiane 2,2,4,4-tetraoxide]: melting point 150 °C; vapor pressure -4.732 (log10 mmHg)

Excerpt, the final 2 entries:

{"smiles": "CC(=O)OC1CCC2C3CCc4cc(O)ccc4C3CCC12C", "stereo": "configuration not stated", "name": "3-Hydroxyestra-1(10),2,4-trien-17-yl acetate", "melting point (°C)": "218", "log Kow": "4", "log S (log10 mol/L)": "-6.321"}
{"smiles": "O=S1(=O)CS(=O)(=O)OCO1", "name": "1,5,2,4-dioxadithiane 2,2,4,4-tetraoxide", "melting point (°C)": "150", "vapor pressure (log10 mmHg)": "-4.732"}